US11987807B2, “Isolated human lung progenitor cells and uses thereof” (THE GENERAL HOSPITAL CORPORATION, priority 2012, dated 2024)

System: mouse ESC-derived endoderm / anterior foregut endoderm cells
Details: BMP7 10 ng/ml
Excerpt: Dorsomorphin inhibits BMP signaling through the SMAD pathway while PD98059 inhibits MAPK signaling.
A recent report described a monolayer-based strategy using synergistic activation of Nodal and Wnt-β-catenin signaling as well as staged BMP4 inhibition to direct mouse ES cells towards an endoderm fate with high efficiency (Sherwood et al., 2011). This technology was adapted herein to generate definitive endoderm (DE) from mouse ES cells. […] Snoeck and colleagues reported that Noggin (a BMP inhibitor) synergized with SB431542 (a TGFβ inhibitor) to suppress a posterior endoderm fate (Cdx2+) in favor of an anterior endoderm fate (Sox2+) (Green et al., 2011). […] Endoderm was treated with combinations of Activin (a TGFβ agonist), A-83-01 (a TGFβ antagonist), BMP4, and Dorsomorphin (a BMP4 antagonist) for 2 days (FIG. 2B). The number of FoxA2+Sox2+ anterior endoderm cells was compared to the total number of FoxA2+ endoderm cells (FIG. 2B). The treated cells were further exposed to the BMP4/FGF2/WNT agonist cocktail for another 2 days to examine their competence to generate Nkx2.1+ cells (FIG. 2B). […] It was tested if their inhibition would enhance anteriorization together with a TGFβ inhibitor.
The expression of lung and other anterior cell fate lineage genes including FoxN1 (thymus), Pax8 (thyroid), and Pax9 and Tbx1 (pharyngeal pouch endoderm) was analyzed by real-time qPCR (Figure S4A). […]

B1: BMP2: BMP family member signalling through type I receptor ALK3 (protein, UniProt P12643 283-396, looked up)
Bone morphogenetic protein 2: QAKHKQRKRLKSSCKRHPLYVDFSDVGWNDWIVAPPGYHAFYCHGECPFPLADHLNSTNHAIVQTLVNSVNSKIPKACCVPTELSAISMLYLDENEKVVLKNYQDMVVEGCGCR
induction of Nkx2.1+ cells from the anterior endoderm compared to BMP4: less efficient than BMP4
